One compound from ChEMBL document CHEMBL3352780, “Discovery of Sulfonamidebenzamides as Selective Apoptotic CHOP Pathway Activators of the Unfolded Protein Response” (ACS Med Chem Lett, 2014) can be followed below.

This experiment in a line: Ratio of XBP1 mRNA expression in human UM-SCC-23 cells to CHOP mRNA expression in human UM-SCC-23 cells at 10 uM. The class given is functional.

With `O=C(Nc1ccc(S(=O)(=O)N2CCC(Cl)CC2)cc1)c1ccc([N+](=O)[O-])o1`, the Ratio is 5.
